From article PMC2641028 come the findings set out here.

In this assay the target is CP-MVP-Z recombinant vaults. Briefly: ELISA.

The EC50 is the concentration that produces a half-maximal response. For the substance human IgG1k (Sigma) (antibody), the concentration for a half-maximal effect (EC50) stood at 0.035 nM.
